Among the data in ChEMBL document CHEMBL6074676, “Optimization and Biological Evaluation of Novel 1H-Pyrrolo[2,3-c]pyridin Derivatives as Potent and Reversible Lysine Specific Demethylase 1 Inhibitors for the Treatment of Acute Myelogenous Leukemia” (J Med Chem, 2024) are Activity values, retold here.

Test [1] deals with MV4-11. Put plainly: Induction of morphological changes in human MV4-11 cells assessed as reduction in nuclear to cytoplasmic ratio at 30 nM measured after 240 hrs by wright-giemsa staining based analysis. It is filed as functional, cell-based.
Test [2] deals with MV4-11. The experiment in a line: Induction of morphological changes in human MV4-11 cells assessed as appearance of segmented nuclei at 30 nM measured after 240 hrs by wright-giemsa staining based analysis. The test is classed as functional, cell-based.

The structures appear in SMILES notation. Active and inactive are the calls of the source. The calls are words filed in the database; no cut-off is given here.

For the compound `COc1ccc(-c2c(-c3ccc(C#N)c(F)c3)nc(N3CCC(N)CC3)n(C)c2=O)cc1F` [PULRODEMSTAT], the outcome in test [1] and in test [2] was Active.
